pEC50: −log10 of the molar value. Read-outs that look alike come from different tables or passages of the source.
Assays:
HDAC2 = HDAC2 (Homo sapiens, UniProt Q92769); assay: NanoBRET target engagement assay (HEK293T); format: cell-based; conditions: read-out: NanoBRET EC50 HDAC2
HDAC1 = HDAC1 (Homo sapiens, UniProt Q13547); assay: NanoBRET target engagement assay (HEK293T); format: cell-based; conditions: read-out: NanoBRET EC50 HDAC1

Chains of the proteins cited; added tags and fusions are not shown.
UniProt Q92769, whole entry: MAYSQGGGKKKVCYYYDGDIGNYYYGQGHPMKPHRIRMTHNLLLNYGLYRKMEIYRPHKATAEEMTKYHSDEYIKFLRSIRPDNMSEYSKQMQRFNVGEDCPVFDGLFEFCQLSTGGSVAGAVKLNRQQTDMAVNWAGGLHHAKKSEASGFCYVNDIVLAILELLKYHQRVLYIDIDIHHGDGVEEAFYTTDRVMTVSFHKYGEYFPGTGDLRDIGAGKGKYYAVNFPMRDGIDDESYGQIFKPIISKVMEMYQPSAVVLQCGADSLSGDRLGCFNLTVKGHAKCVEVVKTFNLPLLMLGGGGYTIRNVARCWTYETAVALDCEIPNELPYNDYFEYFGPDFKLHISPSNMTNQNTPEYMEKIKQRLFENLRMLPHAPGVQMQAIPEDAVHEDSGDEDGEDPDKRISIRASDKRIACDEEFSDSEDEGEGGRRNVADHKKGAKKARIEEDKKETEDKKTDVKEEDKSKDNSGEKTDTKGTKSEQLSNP
UniProt Q13547, whole entry: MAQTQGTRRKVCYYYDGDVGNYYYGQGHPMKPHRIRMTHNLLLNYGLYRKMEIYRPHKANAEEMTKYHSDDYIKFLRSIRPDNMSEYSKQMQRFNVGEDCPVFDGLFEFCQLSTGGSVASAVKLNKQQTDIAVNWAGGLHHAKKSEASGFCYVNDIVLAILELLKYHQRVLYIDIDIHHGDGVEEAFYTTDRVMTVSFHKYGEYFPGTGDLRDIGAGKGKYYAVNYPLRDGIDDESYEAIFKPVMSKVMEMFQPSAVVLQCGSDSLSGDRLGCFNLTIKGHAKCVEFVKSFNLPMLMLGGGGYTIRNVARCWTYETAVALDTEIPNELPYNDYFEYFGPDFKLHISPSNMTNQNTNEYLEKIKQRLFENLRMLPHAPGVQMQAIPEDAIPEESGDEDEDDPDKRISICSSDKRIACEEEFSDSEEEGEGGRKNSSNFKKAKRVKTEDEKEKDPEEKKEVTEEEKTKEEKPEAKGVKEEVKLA

Measured: pEC50

Cc1sc2c(c1C)C(c1ccc(Cl)cc1)=N[C@@H](CC(=O)OC(C)(C)C)c1nnc(C)n1-2
< 4.30: HDAC2; intact cells | HDAC2; lysed cells (digitonin) | HDAC1; intact cells | HDAC1; lysed cells (digitonin)
